These are literature values, as cited in PubChem BioAssay AID1811 (Shanghai Institute of Organic Chemistry, 2009).

The structures appear in SMILES notation. This is one part of the list. Activity calls are given as the source filed them. Where no limit is named, active and inactive come without a cut-off here.

The data set has as its system trypsin i. Nature of the data set: PubChem AID 1811. The settings on record: PDB complex binding affinities from literature.

With `NCc1ccccc1`, the result was active.
